The values that follow come from PMC5469451, “Identification of compounds that suppress Toxoplasma gondii tachyzoites and bradyzoites” (PLoS ONE, 2017).

Data set [1] concerns Vero cells. The data set is described as follows: Host cell cytotoxicity assay (Cell-Titer Glo), Vero cells. To be noted: 10 μM, 48 h, DMSO = 100%. The format is cell-based. Here is the method:
Host cells were treated with compounds at the same concentration used for screening (i.e., 0.5% DMSO and 10 μM compound). Vero cells and HFF cells were both used as host cells because both cell types were used for the parasite screening. After incubation for 48 h in DMEM supplemented with 5% FBS, L-glutamine, penicillin, and streptomycin, cell viabilities were measured by using a Cell-Titer Glo kit (Promega) following the manufacturer’s instructions. Control wells were treated with DMSO alone in culture medium to calculate the 100% viability for each cell type.

The test system of data set [2] is HFF cells. The data set is described as follows: Host cell cytotoxicity assay (Cell-Titer Glo), HFF cells. The format is cell-based, human. The note with it: 48 h. Here is the method:
Vero cells and HFF cells were both used as host cells because both cell types were used for the parasite screening. After incubation for 48 h in DMEM supplemented with 5% FBS, L-glutamine, penicillin, and streptomycin, cell viabilities were measured by using a Cell-Titer Glo kit (Promega) following the manufacturer’s instructions. Control wells were treated with DMSO alone in culture medium to calculate the 100% viability for each cell type.

For the sequence PENITREM A, the “Host Viability (%)” value in data set [1] was 79%. Besides, the “Host cell viability (%)” value in data set [2] (2.5 μM) was determined as 102%; in data set [2] (25 μM, compared with DMSO), 34%.
